In article PMC6222444, “Structural Basis for the Interaction between p53 Transactivation Domain and the Mediator Subunit MED25” (Molecules : A Journal of Synthetic Chemistry and Natural …, 2018):

Molecular target: T1, MED25 activator interaction domain (MED25 ACID, residues 394-543) (human, UniProt Q71SY5 394-543)
T1 construct: Uniformly 15N-labelled in the NMR experiments where it was observed; unlabelled elsewhere; No removal of the His6 tag is described; source: E. coli BL21(DE3)RIL, purified (Ni-NTA, HiTrap-SP, Superdex-75)
T1 sequence (looked up): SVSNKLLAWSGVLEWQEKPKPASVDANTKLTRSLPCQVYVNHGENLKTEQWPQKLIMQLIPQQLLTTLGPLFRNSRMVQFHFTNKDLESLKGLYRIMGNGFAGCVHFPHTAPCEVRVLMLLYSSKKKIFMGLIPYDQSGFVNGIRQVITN
Assay: ITC; 600 µM MED25 ACID titrated into 20 µM p53TAD; 25 mM sodium phosphate, 100 mM NaCl, pH 7.0, 25 °C; one-site binding fit
Settings: both partners purified

B1: p53 transactivation domain (p53TAD, […]) (domain or fragment)
chain: not shown
notes: Uniformly 15N-labelled in the NMR experiment where it was observed; unlabelled elsewhere; also called full-length p53TAD; source: E. coli BL21(DE3)RIL, purified (GST column, thrombin cleavage, HiTrap-Q, Superdex-75); not shown: GST, N-terminal, cleaved
- Kd: 800 ± 100 nM
